Data: PubChem BioAssay (NCI)
Values joined by “and” are separate entries in the source; they are usually repeats but may differ in a detail not shown here. Equal values may be shown once. The list shows a part of the results, in another mix than the full data. Where a structure was tested more than once in an assay, its records may differ in their call. Active and inactive are the calls of the source. Cut-off read from the data, not from the text of the source: active = growth inhibition above about 70%; inactive = the rest.

What was measured:
[1] = NCI Yeast Anticancer Drug Screen. Data for the rad50 strain (AID 155);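 note: 0% = growth of vehicle-only cultures of the same strain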; details: S. cerevisiae rad50 strain growth inhibition, active compounds read high
[2] = NCI Yeast Anticancer Drug Screen. Data for the mec2-1 strain (AID 157); details: S. cerevisiae mec2-1 strain, active compounds read high
[3] = NCI Yeast Anticancer Drug Screen. Data for the sgs1 mgt1 strain (AID 161);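 note: 0% = growth of cultures given vehicle only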; details: S. cerevisiae sgs1 mgt1 strain, active compounds read high
[4] = NCI Yeast Anticancer Drug Screen. Data for the cln2 rad14 strain (AID 165);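 note: 0% = growth equal to vehicle treated cultures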; details: S. cerevisiae cln2 rad14 strain, active compounds read high
[5] = NCI Yeast Anticancer Drug Screen. Data for the bub3 strain (AID 167); details: S. cerevisiae bub3 mutant strain, active compounds read high
[6] = NCI Yeast Anticancer Drug Screen. Data for the mlh1 rad18 strain (AID 175); details: S. cerevisiae mlh1 rad18 strain growth inhibition, active compounds read high
[7] = at 5.0 µM (retest, dose inferred, filed as 0.5)
[8] = at 50.0 µM (retest, dose inferred, filed as 5.0)

Structure (SMILES) | growth inhibition [1, 7] | growth inhibition [1, 8] | growth inhibition ([1]; at 50.0 µM) | growth inhibition [2, 7] | growth inhibition [2, 8] | growth inhibition ([2]; at 50.0 µM) | growth inhibition [3, 7] | growth inhibition [3, 8] | growth inhibition ([3]; at 50.0 µM) | growth inhibition [4, 7] | growth inhibition [4, 8] | growth inhibition ([4]; at 50.0 µM) | growth inhibition [5, 7] | growth inhibition [5, 8] | growth inhibition ([5]; at 50.0 µM) | growth inhibition [6, 7] | growth inhibition [6, 8] | growth inhibition ([6]; at 50.0 µM)
C[As](=O)(O)O | inactive: -3% | inactive: 6% | inactive: 35.5% | inactive: -2% | inactive: 3% | inactive: 6.1% | inactive: 6% | inactive: 1% | inactive: -9.55% | inactive: -5% | inactive: -1% | inactive: 55.1% | inactive: -8% | inactive: -2% | inactive: 22.8% | inactive: -6% | inactive: 7% | inactive: -2.8%
O=[N+]([O-])c1ccc2nn([N+](=O)[O-])cc2c1 | active: 79% | active: 99% | active: 99.5% | active: 97% | active: 100% | active: 99.3% | active: 94% | active: 99% | active: 99.4% | inactive: 63% | active: 96% | active: 99.3% | active: 99% | active: 99% | active: 99.2% | active: 87% | active: 99% | active: 99.5%
O=[N+]([O-])c1cc([As](O)O)ccc1O | inactive: 46% | active: 100% | active: 99.9% | inactive: 20% | active: 99% | active: 99.9% | inactive: 42% | active: 99% | active: 99.8% | inactive: 19% | active: 99% | active: 99.5% | inactive: 49% | active: 99% | active: 99.6% | inactive: 38% | active: 98% | active: 99.8%
O=[P+](O)Oc1ccccc1 | inactive: -148% | inactive: -105% | inactive: 3% and inactive: 7.65% | inactive: -46% | inactive: -47% | inactive: -0.25% and inactive: -32.6% | inactive: -58% | inactive: -46% | inactive: 10.8% and inactive: -16.4% | inactive: -55% | inactive: -56% | inactive: 14.1% and inactive: 1% | inactive: -65% | inactive: -74% | inactive: -0.3% and inactive: 4.45% | inactive: -140% | inactive: -92% | inactive: 3.3% and inactive: -16.7%
O=[N+]([O-])c1ccc([N+](=O)[O-])cc1 | inactive: 34% | active: 99% | active: 99.3% | inactive: 33% | active: 100% | active: 99.7% | inactive: 51% | active: 99% | active: 99.5% | inactive: 20% | active: 99% | active: 98.8% | inactive: 18% | active: 99% | active: 99.2% | inactive: 56% | active: 99% | active: 99.5%
C(=C\c1ccc2ccccc2n1)/c1ccccc1 | inactive: -3% | inactive: -3% | active: 74.3% | inactive: 0% | inactive: 0% | inactive: 17.6% | inactive: -6% | inactive: 5% | inactive: 33.8% | inactive: 1% | inactive: -15% | active: 96.2% | inactive: -3% | inactive: -4% | inactive: 59.2% | inactive: -2% | inactive: -8% | inactive: -10.4%
COc1ccc([As]=O)cc1 (configuration not stated) | active: 95% | active: 100% | active: 99.8% | active: 99% | active: 100% | active: 99.9% | active: 96% | active: 100% | active: 99.7% | active: 96% | active: 99% | active: 99.6% | active: 98% | active: 100% | active: 99.6% | active: 97% | active: 99% | active: 99.8%
CCOP1(=O)N=C(C)NC(C)=N1 | inactive: -1% | inactive: -10% | inactive: -0.5% | inactive: 1% | inactive: -6% | inactive: -10.1% | inactive: -4% | inactive: -8% | inactive: -7.4% | inactive: 2% | inactive: -13% | inactive: 9.8% | inactive: 2% | inactive: 0% | inactive: 9.65% | inactive: -1% | inactive: -13% | inactive: -2.55%
C[N+]1(CCCCCCCC[N+]2(C)CCCCCCC2)CCCCCCC1 | inactive: -14% | inactive: -15% | inactive: 41.5% | inactive: 4% | inactive: -12% | inactive: 25.1% | inactive: -1% | inactive: -2% | inactive: 44.6% | inactive: 9% | inactive: 17% | inactive: -4.95% | inactive: -10% | inactive: 2% | inactive: 48.8% | inactive: 2% | inactive: 14% | inactive: 44.7%
CCOC(=O)C(c1ccc([N+](=O)[O-])cc1[N+](=O)[O-])c1ccc([N+](=O)[O-])cc1[N+](=O)[O-] | inactive: 8% | inactive: 31% | inactive: 56.6% | inactive: 20% | inactive: 61% | inactive: 36.8% | inactive: 2% | inactive: 61% | inactive: 69% | inactive: 9% | inactive: 32% | inactive: 54.6% | inactive: 7% | inactive: 45% | inactive: 41% | inactive: 31% | inactive: 63% | inactive: 57.3%
O=[N+]([O-])c1ccc([N+](=O)[O-])c(O)c1 | inactive: 33% | active: 98% | active: 90% | inactive: 32% | active: 99% | active: 93% | inactive: 45% | active: 99% | active: 91% | inactive: 34% | active: 98% | active: 92.3% | inactive: 66% | active: 99% | active: 91% | active: 79% | active: 99% | active: 91.2%
Cc1nn(-c2ccc([N+](=O)[O-])cc2[N+](=O)[O-])nc1[N+](=O)[O-] | inactive: 11% | active: 99% | active: 78.7% | inactive: -7% | active: 99% | inactive: 7.9% | inactive: 11% | active: 100% | active: 87.4% | inactive: -2% | active: 99% | inactive: -38.5% | inactive: -1% | active: 99% | inactive: 9.55% | inactive: 19% | active: 99% | inactive: 57.8%
CCN(CCNCCCNCCSP(=O)(O)O)c1cccc(C)c1 | inactive: 3% | active: 96% | inactive: 9.85% | inactive: -7% | active: 98% | inactive: -7.95% | inactive: -6% | active: 98% | inactive: 21.8% | inactive: -7% | active: 89% | inactive: -1.85% | inactive: -6% | active: 97% | inactive: 34.9% | inactive: 17% | active: 98% | active: 75.4%
CCC(/C=N/Nc1ccc([N+](=O)[O-])cc1[N+](=O)[O-])=N/Nc1ccc([N+](=O)[O-])cc1[N+](=O)[O-] | inactive: 0% | inactive: -7% | inactive: -66.7% | inactive: 1% | inactive: -4% | inactive: -9.55% | inactive: 1% | inactive: 3% | inactive: -17.1% | inactive: 2% | inactive: -3% | inactive: -29.4% | inactive: 1% | inactive: -7% | inactive: 5.25% | inactive: 2% | inactive: -5% | inactive: -9.45%
CCOC(=O)C1COP(=O)(N(CCCl)CCCl)N1 (configuration not stated) | inactive: 1% | inactive: -1% | inactive: -17.7% | inactive: -2% | inactive: 3% | inactive: -5.15% | inactive: 1% | inactive: -4% | inactive: 4.9% | inactive: -2% | inactive: 3% | inactive: 37.2% | inactive: 0% | inactive: -1% | inactive: 5.3% | inactive: 0% | inactive: 6% | inactive: 1.05%
CCc1cc(O)c([N+](=O)[O-])c(C)c1[N+](=O)[O-] | inactive: 4% | active: 72% | active: 79.4% | inactive: 6% | active: 83% | active: 92.3% | inactive: 6% | active: 86% | inactive: -3.25% | inactive: -3% | active: 76% | active: 82.9% | inactive: -2% | active: 79% | active: 81.7% | inactive: 0% | active: 78% | inactive: 46.5%
O=C(CSc1ccc([N+](=O)[O-])cc1[N+](=O)[O-])NCCNC(=O)CSc1ccc([N+](=O)[O-])cc1[N+](=O)[O-] | active: 99% | active: 99% | inactive: 57.5% | active: 99% | active: 99% | active: 92.5% | active: 99% | active: 99% | active: 91.5% | active: 99% | active: 99% | active: 91.8% | active: 98% | active: 98% | active: 93.4% | active: 99% | active: 99% | active: 87.8%
CC(=O)Nc1ccc([As]=O)c2ccccc12 (configuration not stated) | active: 93% | active: 99% | active: 99.2% | active: 99% | active: 99% | active: 99.3% | active: 99% | active: 99% | active: 99.5% | active: 98% | active: 99% | active: 99.3% | active: 99% | active: 98% | active: 99.3% | active: 99% | active: 99% | active: 99.5%
O=[N+]([O-])c1ccc(N/N=C/C=N/Nc2ccc([N+](=O)[O-])cc2[N+](=O)[O-])c([N+](=O)[O-])c1 | inactive: 5% | inactive: 14% | inactive: 5.55% | inactive: 3% | inactive: 5% | inactive: 16.7% | inactive: -1% | inactive: 6% | inactive: -12.8% | inactive: 4% | inactive: 4% | inactive: -1% | inactive: -3% | inactive: 0% | inactive: 2% | inactive: 3% | inactive: -53% | inactive: -9.4%
